Drawing on patent EP2739618B1, “QUINAZOLINE COMPOUNDS AS SERINE/THREONINE KINASE INHIBITORS” (Array Biopharma, Inc., priority 2011, dated 2013), this text covers IC50 for one compound.

Amino acid sequences for entries named in this document (tags omitted). Residues count along the entry.
UniProt P28482, 8-360 limits assumed: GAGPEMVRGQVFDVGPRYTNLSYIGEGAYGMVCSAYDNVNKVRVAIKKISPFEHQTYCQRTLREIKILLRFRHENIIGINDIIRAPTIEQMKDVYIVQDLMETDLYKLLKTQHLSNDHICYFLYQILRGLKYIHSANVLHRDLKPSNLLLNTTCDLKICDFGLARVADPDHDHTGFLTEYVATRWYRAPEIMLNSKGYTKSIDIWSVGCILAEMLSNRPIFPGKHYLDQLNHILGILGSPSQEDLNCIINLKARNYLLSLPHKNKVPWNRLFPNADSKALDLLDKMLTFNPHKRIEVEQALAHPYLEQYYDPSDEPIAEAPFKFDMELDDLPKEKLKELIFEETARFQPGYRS

The test deals with human ERK-2 (Mitogen Activated Kinase 1) (Homo sapiens, UniProt P28482). Briefly: ERK-2 Enzymatic Assay. The format is biochemical. The note with it: TABLE II; 5nM ERK-2 enzyme, 25µM ATP, S/T17 peptide substrate; single assay or mean of multiple assays.

Compound `COc1ccc([C@H](NC(=O)c2cc(F)c3cnc(N[C@H]4C[C@H](F)C4)nc3c2)c2cnn(C)c2)cc1F` came in with an IC50 of 4.5 nM.
